The results in this text go back to the Kinase Knowledgebase extract (Sharma et al. 2016).

Protein sequences, listed by entry. Tags and fused reporters are not part of them.
UniProt P42336, whole entry, looked up: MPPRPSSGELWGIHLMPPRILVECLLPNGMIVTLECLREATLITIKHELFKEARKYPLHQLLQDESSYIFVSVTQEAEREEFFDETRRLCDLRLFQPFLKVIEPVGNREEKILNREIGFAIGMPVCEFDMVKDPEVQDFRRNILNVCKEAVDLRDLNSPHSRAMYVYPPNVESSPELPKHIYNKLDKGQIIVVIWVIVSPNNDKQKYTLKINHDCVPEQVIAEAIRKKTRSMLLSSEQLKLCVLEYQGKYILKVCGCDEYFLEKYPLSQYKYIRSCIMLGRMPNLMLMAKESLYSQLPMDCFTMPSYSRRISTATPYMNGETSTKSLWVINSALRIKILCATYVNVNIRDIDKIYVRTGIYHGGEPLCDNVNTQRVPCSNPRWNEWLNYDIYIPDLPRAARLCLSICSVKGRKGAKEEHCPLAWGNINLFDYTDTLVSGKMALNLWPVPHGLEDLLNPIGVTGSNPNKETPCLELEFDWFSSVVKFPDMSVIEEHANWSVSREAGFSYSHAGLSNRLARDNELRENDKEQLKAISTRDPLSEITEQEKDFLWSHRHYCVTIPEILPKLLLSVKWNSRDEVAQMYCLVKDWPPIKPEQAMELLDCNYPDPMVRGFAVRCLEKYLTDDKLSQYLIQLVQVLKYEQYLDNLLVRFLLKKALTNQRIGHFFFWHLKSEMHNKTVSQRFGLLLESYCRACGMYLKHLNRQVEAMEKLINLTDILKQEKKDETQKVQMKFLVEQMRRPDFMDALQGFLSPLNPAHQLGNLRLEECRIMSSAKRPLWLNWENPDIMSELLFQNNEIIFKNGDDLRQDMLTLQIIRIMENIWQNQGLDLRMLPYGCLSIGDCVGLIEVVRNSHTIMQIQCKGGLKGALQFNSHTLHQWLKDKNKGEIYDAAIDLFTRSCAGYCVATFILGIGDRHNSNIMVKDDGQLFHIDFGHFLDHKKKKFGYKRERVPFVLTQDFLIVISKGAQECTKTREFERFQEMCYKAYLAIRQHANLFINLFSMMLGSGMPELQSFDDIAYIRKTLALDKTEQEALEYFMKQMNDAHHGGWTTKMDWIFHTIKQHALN

As usually defined, the IC50 is the concentration needed to halve the response being measured. Read a high IC50 as lower potency.

The assay concerns the target PIK3CA (human) (UniProt P42336). As to the kind of experiment: Inhibition of PIK3CA Kinase Activity (Fluorescence Polarization Format Assay).

As for `CN(C)C1CCN(C(=O)c2ccc(NC(=O)Nc3ccc(-c4nc(N5CCOCC5)c5ccn(CC(F)(F)F)c5n4)cc3)cc2)CC1`, the IC50 was determined as 6 nM. This counts as single-digit nanomolar.

In turn, `O=C(Nc1ccncc1)Nc1ccc(-c2nc(N3CCOCC3)c3ccn(CC(F)(F)F)c3n2)cc1` returned an IC50 of 10 nM.
